The values that follow are results of earlier work, collected in US20100068786A1, “METHODS AND COMPOSITIONS FOR REVERSING P-GLYCOPROTEIN MEDICATED DRUG RESISTANCE” (priority 2008, published 2010).

Protein sequences, listed by entry. Tags and fused reporters are not part of them.
UniProt P21447, whole entry: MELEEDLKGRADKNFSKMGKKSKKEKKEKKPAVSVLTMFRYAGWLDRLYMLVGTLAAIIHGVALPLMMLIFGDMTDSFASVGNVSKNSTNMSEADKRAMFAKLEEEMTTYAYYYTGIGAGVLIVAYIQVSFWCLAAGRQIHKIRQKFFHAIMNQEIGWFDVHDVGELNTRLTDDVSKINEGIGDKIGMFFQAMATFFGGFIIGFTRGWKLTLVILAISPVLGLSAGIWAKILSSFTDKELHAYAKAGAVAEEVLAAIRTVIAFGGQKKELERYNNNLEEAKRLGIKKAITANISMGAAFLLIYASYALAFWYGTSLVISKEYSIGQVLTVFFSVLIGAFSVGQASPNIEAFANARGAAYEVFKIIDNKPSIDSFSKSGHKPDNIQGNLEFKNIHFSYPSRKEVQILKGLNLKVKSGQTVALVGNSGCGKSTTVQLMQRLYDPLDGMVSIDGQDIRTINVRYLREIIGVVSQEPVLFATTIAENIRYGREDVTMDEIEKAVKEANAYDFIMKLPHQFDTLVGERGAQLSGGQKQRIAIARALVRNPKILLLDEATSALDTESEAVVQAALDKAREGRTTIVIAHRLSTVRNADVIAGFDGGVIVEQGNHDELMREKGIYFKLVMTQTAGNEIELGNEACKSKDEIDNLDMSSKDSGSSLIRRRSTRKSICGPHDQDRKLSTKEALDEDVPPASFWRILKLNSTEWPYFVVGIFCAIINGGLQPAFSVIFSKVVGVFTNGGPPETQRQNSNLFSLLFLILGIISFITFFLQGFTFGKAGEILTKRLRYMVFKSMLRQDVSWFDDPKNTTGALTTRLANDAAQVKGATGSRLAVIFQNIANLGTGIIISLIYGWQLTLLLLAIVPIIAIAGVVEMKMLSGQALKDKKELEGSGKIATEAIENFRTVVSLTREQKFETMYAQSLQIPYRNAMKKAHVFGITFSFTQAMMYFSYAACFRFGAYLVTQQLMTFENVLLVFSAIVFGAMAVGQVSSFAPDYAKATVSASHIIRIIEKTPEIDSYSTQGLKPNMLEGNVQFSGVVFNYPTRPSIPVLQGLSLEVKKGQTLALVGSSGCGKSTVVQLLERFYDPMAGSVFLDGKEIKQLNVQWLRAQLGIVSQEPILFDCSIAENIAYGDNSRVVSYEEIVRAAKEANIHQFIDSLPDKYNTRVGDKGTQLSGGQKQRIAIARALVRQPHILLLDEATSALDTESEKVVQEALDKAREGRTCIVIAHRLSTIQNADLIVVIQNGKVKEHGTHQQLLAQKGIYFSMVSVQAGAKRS

The data set has as its target P-gp (Mus musculus, UniProt P21447). To be noted: mdr1a(−/−) knock out mice vs control wild-type mice; cited from earlier work.

Consider `Cc1nc2n(c(=O)c1CCN1CCC(c3noc4cc(F)ccc34)CC1)CCCC2` [risperidone], for which the “increase of brain-to-serum ratio” value was “over 10 times”.
